Source: PubChem BioAssay (NCI)
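These data come from cells grown in 96-well plates and exposed to compound for 48 hours at five concentrations. The concentration for 50% growth inhibition is given as GI50. TGI marks complete inhibition of growth.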

Legend:
Experiment in all cases: NCI tumour cell line growth inhibition, 48 h
NCI-H23 lung = test system: NCI-H23 lung
PC-3 prostate = test system: PC-3 prostate
HOP-92 NSCLC = test system: HOP-92 NSCLC
UO-31 renal = test system: UO-31 renal
SK-MEL-5 melanoma = test system: SK-MEL-5 melanoma
EKVX NSCLC = test system: EKVX NSCLC
SNB-19 CNS = test system: SNB-19 CNS
SF-539 CNS = test system: SF-539 CNS
OVCAR-3 ovarian = test system: OVCAR-3 ovarian
MDA-MB-435 = test system: MDA-MB-435
NCI-H460 lung = test system: NCI-H460 lung
SK-MEL-28 melanoma = test system: SK-MEL-28 melanoma
OVCAR-5 ovarian = test system: OVCAR-5 ovarian
MCF7 breast = test system: MCF7 breast
SNB-75 CNS = test system: SNB-75 CNS
MALME-3M melanoma = test system: MALME-3M melanoma
SF-268 CNS = test system: SF-268 CNS
OVCAR-8 ovarian = test system: OVCAR-8 ovarian
UACC-257 melanoma = test system: UACC-257 melanoma
CCRF-CEM leukemia = test system: CCRF-CEM leukemia
LOX IMVI melanoma = test system: LOX IMVI melanoma
HL-60(TB) leukemia = test system: HL-60(TB) leukemia
HT29 colon = test system: HT29 colon
K-562 leukemia = test system: K-562 leukemia
HCT-116 colon = test system: HCT-116 colon
NCI-H522 lung = test system: NCI-H522 lung
KM12 colon = test system: KM12 colon
CAKI-1 renal = test system: CAKI-1 renal
OVCAR-4 ovarian = test system: OVCAR-4 ovarian
TK-10 renal = test system: TK-10 renal
HCT-15 colon = test system: HCT-15 colon
SK-OV-3 ovarian = test system: SK-OV-3 ovarian
786-0 renal = test system: 786-0 renal
SN12C renal = test system: SN12C renal
COLO 205 colon = test system: COLO 205 colon
ACHN renal = test system: ACHN renal
U251 CNS = test system: U251 CNS
IGROV1 ovarian = test system: IGROV1 ovarian
SK-MEL-2 melanoma = test system: SK-MEL-2 melanoma
HOP-62 NSCLC = test system: HOP-62 NSCLC
MDA-MB-231 breast = test system: MDA-MB-231 breast
HCC-2998 colon = test system: HCC-2998 colon
NCI/ADR-RES ovarian = test system: NCI/ADR-RES ovarian
RXF 393 renal = test system: RXF 393 renal
A549 NSCLC = test system: A549 NSCLC
UACC-62 melanoma = test system: UACC-62 melanoma
BT-549 breast = test system: BT-549 breast
HS 578T breast = test system: HS 578T breast
A498 renal = test system: A498 renal
DU-145 prostate = test system: DU-145 prostate
T-47D breast = test system: T-47D breast
NCI-H322M lung = test system: NCI-H322M lung
M14 melanoma = test system: M14 melanoma
RPMI-8226 leukemia = test system: RPMI-8226 leukemia
SR leukemia = test system: SR leukemia
NCI-H226 lung = test system: NCI-H226 lung
MOLT-4 leukemia = test system: MOLT-4 leukemia
SW-620 colon = test system: SW-620 colon

## Cc1c([N+](=O)[O-])c(C)c([N+](=O)[O-])c(Nc2c([N+](=O)[O-])c(C)c([N+](=O)[O-])c(C)c2[N+](=O)[O-])c1[N+](=O)[O-]
NCI-H23 lung
  GI50: 1360 nM
  TGI: 3390 nM
PC-3 prostate
  GI50: 578 nM
  TGI: 5760 nM
HOP-92 NSCLC
  GI50: 218 nM
  TGI: 747 nM
UO-31 renal
  GI50: 2130 nM
  TGI: 9540 nM
SK-MEL-5 melanoma
  GI50: 1550 nM
  TGI: 3350 nM
EKVX NSCLC
  GI50: 1760 nM
  TGI: > 100000 nM
SNB-19 CNS
  GI50: 2340 nM
  TGI: 38400 nM
SF-539 CNS
  GI50: 1940 nM
  TGI: 12100 nM
OVCAR-3 ovarian
  GI50: 1820 nM
  TGI: 9200 nM
MDA-MB-435
  GI50: 2180 nM
  TGI: 6980 nM
NCI-H460 lung
  GI50: 2010 nM
  TGI: 9730 nM
SK-MEL-28 melanoma
  GI50: 1940 nM
  TGI: 7380 nM
OVCAR-5 ovarian
  GI50: 2060 nM
  TGI: 15100 nM
MCF7 breast
  GI50: 872 nM
  TGI: 10200 nM
SNB-75 CNS
  GI50: 1340 nM
  TGI: 7720 nM
MALME-3M melanoma
  GI50: 1270 nM
  TGI: 11900 nM
SF-268 CNS
  GI50: 1980 nM
  TGI: 16400 nM
OVCAR-8 ovarian
  GI50: 2620 nM
  TGI: 9440 nM
UACC-257 melanoma
  GI50: 2060 nM
  TGI: 4930 nM
CCRF-CEM leukemia
  GI50: 463 nM
  TGI: 3670 nM
LOX IMVI melanoma
  GI50: 1450 nM
  TGI: 5360 nM
HL-60(TB) leukemia
  GI50: 1810 nM
  TGI: 4820 nM
HT29 colon
  GI50: 1190 nM
  TGI: 10800 nM
K-562 leukemia
  GI50: 1400 nM
  TGI: 29900 nM
HCT-116 colon
  GI50: 452 nM
  TGI: 2040 nM
NCI-H522 lung
  GI50: 1120 nM
  TGI: 4720 nM
KM12 colon
  GI50: 2460 nM
  TGI: 7940 nM
CAKI-1 renal
  GI50: 1760 nM
  TGI: 10100 nM
OVCAR-4 ovarian
  GI50: 1110 nM
  TGI: 12500 nM
TK-10 renal
  GI50: 3760 nM
  TGI: 12900 nM
HCT-15 colon
  GI50: 1280 nM
  TGI: 4020 nM
SK-OV-3 ovarian
  GI50: 2430 nM
  TGI: 7590 nM
786-0 renal
  GI50: 1640 nM
  TGI: 6850 nM
SN12C renal
  GI50: 2130 nM
  TGI: 13100 nM
COLO 205 colon
  GI50: 999 nM
  TGI: 2150 nM
ACHN renal
  GI50: 2160 nM
  TGI: 67600 nM
U251 CNS
  GI50: 440 nM
  TGI: 3620 nM
IGROV1 ovarian
  GI50: 3100 nM
  TGI: 16900 nM
SK-MEL-2 melanoma
  GI50: 1450 nM
  TGI: 3610 nM
HOP-62 NSCLC
  GI50: 1070 nM
  TGI: 2780 nM
MDA-MB-231 breast
  GI50: 455 nM
  TGI: 2470 nM
HCC-2998 colon
  GI50: 550 nM
  TGI: 4990 nM
NCI/ADR-RES ovarian
  GI50: 1810 nM
  TGI: 9160 nM
RXF 393 renal
  GI50: 858 nM
  TGI: 5160 nM
A549 NSCLC
  GI50: 2050 nM
  TGI: 9830 nM
UACC-62 melanoma
  GI50: 1300 nM
  TGI: 3840 nM
BT-549 breast
  GI50: 1280 nM
  TGI: 4150 nM
HS 578T breast
  GI50: 584 nM
  TGI: 7090 nM
A498 renal
  GI50: 219 nM
  TGI: 1340 nM
DU-145 prostate
  GI50: 2970 nM
  TGI: 17900 nM
T-47D breast
  GI50: 1710 nM
  TGI: 6960 nM
NCI-H322M lung
  GI50: 1190 nM
  TGI: 9140 nM
M14 melanoma
  GI50: 1780 nM
  TGI: 6280 nM
RPMI-8226 leukemia
  GI50: 649 nM
  TGI: 3340 nM
SR leukemia
  GI50: 506 nM
  TGI: 3810 nM
NCI-H226 lung
  GI50: 1870 nM
  TGI: 6330 nM
MOLT-4 leukemia
  GI50: 1110 nM
  TGI: 3690 nM
SW-620 colon
  GI50: 1770 nM
  TGI: 10900 nM

## CC1CC[P+](c2ccccc2)(c2ccccc2)c2c1ccc1ccccc21.F[P-](F)(F)(F)(F)F (configuration not stated)
NCI/ADR-RES ovarian
  TGI: > 100000 nM
